TRPML1 blocker – inhibitors of human TRPML1 channel. Q9GZU1. TRPML1-inducible cells, Ca2+ dye fluorescence, FDSS; active compounds read low; inhibition of EC80 agonist-evoked calcium signal. activity change, negative = inhibition, % (concentration not given with the values). actives 0.02% (n = 390,000). AID 624415; in the data active = activity change below about -50%; inconclusive = between about -30% and that limit;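 note: stimulus is agonist 54-4 at its EC80 concentration; % is set by controls: 0 for no effect and ±100 for the full control effect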
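Calcium fluorescence in TRPML1-DL cells induced overnight with Tet: a 110 s read after compound pin addition, then a 110 s antagonist read after challenge with 54-4 at 4 uM final (EC80).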
TRPML1 agonist – human mucolipin-1 channel agonism. Q9GZU1. TRPML1-expressing cells, Ca2+ dye fluorescence, FDSS. activation, % (concentration not given with the values). actives 0.12% (n = 410,000). AID 624414; in the data active = activation above about 50%; inconclusive = mostly about 30% to 49%; note: 0% is about no effect
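In this qHTS format, compounds were pin-transferred onto Ca8-dye-loaded TRPML1-DL cells induced with Tet overnight, and intracellular Ca2+ fluorescence was recorded kinetically for 110 s after a 10 s baseline. A subsequent 4uM final 54-4 (EC80) addition followed by a second 110 s read served as the antagonist phase.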
uPA surface inh – inhibitors of cell surface uPA generation. cell surface uPA generation assay, qHTS. Potency, µM (top dose mostly 38.3 µM), for inactives: top-dose activity change, negative = inhibition, usual class: inhibitors. actives 0.31% (n = 330,000); active = well fitted inhibition curve with a large enough effect; inconclusive = small, poorly fitted or top-dose-only effect; inactive = no such curve, though single readings can be large or run the other way; tested in mouse RAW 264.7 cells; note: potency is the fitted concentration of half-maximal effect; % is set by controls: 0 for no effect and ±100 for the full control effect; nearly all actives have a fitted effect of over 55% in size
miR-21 reporter – miR-21 reporter, rising signal. 340,000 tested, under 10 active. Potency, µM (highest dose often 38.3 µM), for the others: at the highest dose reporter change, positive = more light. HeLa miR-21 FLuc reporter, luciferase, 48 h. AID 2288; active = well fitted rising curve with a large enough effect; inconclusive = small, poorly fitted or top-dose-only effect; inactive = no such curve, though single readings can be large or run the other way;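 further: % of control where 0% means no effect; miR-21 action dims this reporter so a rising signal means less miR-21 action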
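HeLa cells stably expressing CMV-driven firefly luciferase with a downstream miR-21 binding sequence, endogenously expressing miR-21, were treated with titrations (up to about 40uM final) for 48 hours at 37 degree Celsius. Luciferase luminescence was read after lysis.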
An asterisk follows results filed as active; u = inconclusive; x = no result. Compounds with a hit are over-represented: about 0.34% of the library has one in this group of screens.

TRPML1 blocker | TRPML1 agonist | SMILES | uPA surface inh | miR-21 reporter
x | 123* | CCCCCCCCCC[n+]1ccc(/C=C/c2c(C)[nH]c3ccccc23)cc1 | x | x
x | 63* | CCCCCCC[n+]1ccc(/C=C/c2c[nH]c3ccccc23)cc1 | x | x
x | 20 | Cc1[nH]c2ccccc2c1/C=C/c1nccc2ccccc12 | x | x
x | 0 | CNc1ccc(/C=C2\C=Cc3ccccc32)cc1I | x | x
-5 | 0 | O=C(c1ccc2c(c1)C(=O)N(CCCO)C2=O)c1ccc2c(c1)C(=O)N(CCCO)C2=O | 0% | -4%
-3 | 0 | O=C1c2ccc3c4c(ccc(c24)C(=O)N1CCCCO)C(=O)N(CCCCO)C3=O | 2.5µM* | u
-10 | 2 | N/C(=N\OC(=O)c1ccc(Cl)cc1Cl)c1ccccn1 | 2.8µM* | u
x | 55* | Cc1ccc2c(c1)C/C(=C/c1ccc(N(C)C)cc1)C2=O | x | x
13 | 3 | COc1ccc2[nH]c3c(c2c1)CCNC3c1ccc([N+](=O)[O-])o1 (centres undefined) | -12% | 5%
2 | 0 | COc1ccc2[nH]c3c(c2c1)CCNC3C1CC=C(C)CC1 (centres undefined) | 2.8µM* | 28%
x | x | CCOc1cccc(/C=N/NC(=O)c2cccnc2)c1O | 10µM* | 16%
18 | 1 | CCCCNC(=S)N/N=C/c1cccc(OCC)c1O | -2% | -48%

Three of the entries above in order of the TRPML1 agonist value, highest first.
TRPML1 blocker | TRPML1 agonist | SMILES | uPA surface inh | miR-21 reporter
x | 55* | Cc1ccc2c(c1)C/C(=C/c1ccc(N(C)C)cc1)C2=O | x | x
x | 20 | Cc1[nH]c2ccccc2c1/C=C/c1nccc2ccccc12 | x | x
-3 | 0 | O=C1c2ccc3c4c(ccc(c24)C(=O)N1CCCCO)C(=O)N(CCCCO)C3=O | 2.5µM* | u

Going on with the list.
TRPML1 blocker | TRPML1 agonist | SMILES | uPA surface inh | miR-21 reporter
-5 | -1 | CCOc1cccc(/C=N/NC(=S)Nc2ccccc2[N+](=O)[O-])c1O | 6.3µM* | 7%
x | -1 | COc1cc2ncnc(N3CCN(C(=O)Nc4ccc(Oc5ccccc5)cc4)CC3)c2cc1OC | x | x
-53* | 2 | CCc1nc(=O)c(-c2ccccc2)c(C)n1-c1ccccc1 | 3% | -1%
8 | 2 | COc1ccc(-n2c(C)nc(=O)c(-c3ccccc3)c2C)cc1 | -2% | -7%
-10 | 52* | FC(F)(F)c1nc(N2CCCC2)ncc1-c1nnnn1-c1ccccc1 | -5% | 21%
5 | 11 | Cc1ccc(-n2nnnc2-c2cnc(N3CCCC3)nc2C(F)(F)F)cc1 | -4% | 18%
-1 | 3 | Cc1ccc(Nc2c(-c3ccccn3)nc3cc(C)ccn23)cc1 | -2% | 28%
-3 | 2 | Cc1ccc(Nc2c(-c3ccccn3)nc3ccc(C)cn23)cc1 | 6.3µM* | u
x | 0 | CC(=O)NC(Cc1ccc(Cl)cc1)C(=O)NCC(N)C(=O)c1ccccc1 (centres undefined) | x | x
x | 0 | O=C(Cc1ccc(-c2ccccc2)cc1)NO | x | x
-52* | 3 | O=C(c1cc(-c2ccc(O)cc2)on1)N1CCCCCC1 | -6% | -24%
-51* | 0 | CC1CCN(c2ccc(NC(=O)Cc3ccccc3)cc2)CC1 | -3% | -19%

(list continues)
TRPML1 blocker | TRPML1 agonist | SMILES | uPA surface inh | miR-21 reporter
x | x | O=c1[nH]cnc2c1ccn2C1OC(CO)C(O)C1O (centres undefined) | 4µM* | x
x | 0 | O=c1[nH]cnc2c1[nH]c(=S)n2C1O[C@@H](CO)[C@H](O)[C@@H]1O (some centres undefined) | x | x
-54* | 0 | O=C(CCCn1nnc2ccccc2c1=O)N[C@H](C(=O)O)c1ccccc1 | 15% | -3%
x | 0 | NC(=O)COC(=O)c1ccccc1OCC(=O)Nc1ccc(Br)cc1 | x | x
x | 0 | O=C(C[n+]1ccccc1Cl)c1ccc(Br)cc1 | x | x
1 | 67* | Cc1ccc(S(=O)(=O)/N=C2/NC(=O)/C(=C/c3cc([N+](=O)[O-])ccc3O)S2)cc1 | 3% | -1%
8 | 0 | CC[n+]1c(/C=C/c2ccc(N(C)C)cc2)ccc2ccccc21 | -13% | 27%
x | 107* | CN(C)c1ccc(/C=C/c2ccc3ccccc3[n+]2[O-])cc1 | x | x
-17 | 0 | O=C(CSc1ccccn1)N/N=C/c1ccccc1[N+](=O)[O-] | -4% | -31%
-11 | 0 | O=C(CSc1ccccn1)N/N=C/c1cc([N+](=O)[O-])ccc1O | 3.5µM* | 23%
44 | 2 | CCc1ccc2oc(-c3ccc(OC)cc3)cc(=Nc3c(C)n(C)n(-c4ccccc4)c3=O)c2c1 | 8.9µM* | 8%
11 | 1 | CCc1ccc2oc(-c3ccc(OC)cc3)cc(=Nc3cccc(C(=O)O)c3)c2c1 | -9% | -2%

(more compounds)
TRPML1 blocker | TRPML1 agonist | SMILES | uPA surface inh | miR-21 reporter
x | 3 | CCc1cccc(NC(=O)COC(=O)c2ccccc2OCc2ccccc2Br)c1 | x | x
18 | 0 | Cc1ccc(-n2nnc(-c3nccs3)n2)cc1 | 2.2µM* | 26%
x | -1 | COc1ccc(/C=C/c2nccc3ccccc23)cc1OC | x | x
-11 | 58* | CCN1/C(=C/c2ccc3cccc(C)c3[n+]2CC)Sc2ccccc21 | x | -9%
-11 | 78* | CCOc1cc(/C=C2\CCCc3c2nc2ccccc2c3C(=O)O)ccc1OC | -5% | 0%
8 | -1 | COc1ccc2nc(NC(=O)c3cccc(N4C(=O)CCC4=O)c3)sc2c1 | 4.5µM* | x
-1 | 0 | COc1ccc(NC(=O)c2nc(C)c(C3(C)CC(c4cccnc4)=NO3)s2)cc1 (centres undefined) | 1.6µM* | 22%
0 | 0 | Cc1nc(C(=O)Nc2ccc(Cl)cc2)sc1C1(C)CC(c2cccc([N+](=O)[O-])c2)=NO1 (centres undefined) | 7% | x
-8 | 0 | CC(=O)/C=C(\C)Nc1ccccc1O | 7.9µM* | -5%
-16 | 0 | O=C(Nc1ccccc1O)c1ccccc1O | -13% | -11%
3 | -1 | COc1cc2c(cc1OC)C(C)N(C(=O)c1c(C)noc1C)CC2 (centres undefined) | 5µM* | 19%
x | -1 | C=C(c1nc2ccccc2s1)C1Cc2cccc3c2N(CCC3)C1 (centres undefined) | x | x

Carrying on:
TRPML1 blocker | TRPML1 agonist | SMILES | uPA surface inh | miR-21 reporter
0 | 61* | CCN1CCc2c(sc(NC(=O)c3ccc(S(=O)(=O)N(C)c4ccccc4)cc3)c2C(=O)NC)C1 | -9% | 9%
3 | 7 | CNC(=O)c1c(NC(=O)c2ccc(S(=O)(=O)N(C)c3ccccc3)cc2)sc2c1CCN(C(C)C)C2 | -5% | 3%
x | 3 | [O-][N+]12CCCc3cccc(c31)CCC2 | x | x
28 | 0 | COc1ccccc1-n1c(CCC(=O)O)ccc1-c1ccccc1 | -4% | -20%
1 | -1 | COc1ccc(-c2ccc(CCC(=O)O)n2-c2ccccc2OC)cc1 | 2.2µM* | 19%
34 | -1 | Cc1ccccc1CSCC(=O)NC1CCCC1 | -2% | -32%
-54* | 1 | Cc1ccccc1CC(=O)NC1CCCCCC1 | -15% | 1%
-11 | 109* | O=C1/C(=C\c2cc(Cl)c(O)c(Cl)c2)SC(=S)N1Cc1ccccc1 | -11% | 25%
x | x | COc1ccc(/C=C2/SC(=S)N(Cc3ccccc3)C2=O)cc1O | -15% | -17%
-1 | 0 | COc1ccc(/C=C2\OC(=S)N(C)C2=O)cc1 | 6% | -10%
-7 | 82* | CN1C(=O)/C(=C\c2ccc(N(C)C)cc2)OC1=S | -4% | -11%
x | 0 | O=C(Cc1ccc(OCCCCc2ccccc2)cc1)NO | x | x
x | 2 | O=C1[C@H](Cc2ccccc2)NC/C=C\C[C@H](c2ccco2)N1Cc1ccccc1 | x | x

Complete entries as entered above:
Listed for COc1ccc(/C=C2/SC(=S)N(Cc3ccccc3)C2=O)cc1O → TRPML1 blocker: x; TRPML1 agonist: x; uPA surface inh: -15%; miR-21 reporter: -17%
Listed for COc1ccccc1-n1c(CCC(=O)O)ccc1-c1ccccc1 → TRPML1 blocker: 28; TRPML1 agonist: 0; uPA surface inh: -4%; miR-21 reporter: -20%
Listed for Cc1ccccc1CSCC(=O)NC1CCCC1 → TRPML1 blocker: 34; TRPML1 agonist: -1; uPA surface inh: -2%; miR-21 reporter: -32%
